A short description of assay [1]: Potassium sensitivity on streptavidin coated slides. To be noted: streptavidin coated glass slide, increasing K2SO4, vs non-biotinylated control. The procedure: A glass slide was coated with streptavidin. Compound VII-11, having a biotin coupling agent, was added to the slide. The slide was treated with increasing concentrations of potassium ions (K2SO4).
A further assay has as its system HALOTAG® protein. The assay can be described thus: Fluorescence polarization with HALOTAG Standard Protein. The note with it: PBS+CHAPS. The protocol: First, made the buffer solution in which to dissolve/test the desired compounds which is composed of TMR ligand (Promega) as a positive control, HALOTAG®Standard Protein (Promega), and Thallos HALOTAG®Ligand (ION). Combined 1×PBS (Gibco) with 0.01% w/v CHAPS hydrate (Sigma). Added adequate amount of TMR (Promega) solution to the buffer solution to have a working concentration of 200 nM. Hydrolyzed Thallos HALOTAG® Ligand (ION) using KOH. Added adequate amount of this solution to the buffer solution to have a working concentration of 200 nM. Added adequate amount of HALOTAG® Standard Protein (Promega) to the buffer solution to have a working concentration of 800 nM.
Added two sets of 20 μL of PBS+CHAPS solution, 20 μL of TMR in PBS+CHAPS solution, and 20 μL of Thallos HALOTAGR Ligand in PBS+CHAPS solution to a 384-well plate (Falcon). Used a FlexStation (Molecular Devices) to collect data. Set the excitation wavelength to 550 nm and the emission wavelength to 590 nm when reading TMR data. For the Thallos data, set excitation to 485 nm and emission to 515 nm. Collected baseline fluorescence polarization data for 1 minute. After adding the compound being tested to each well, added 20 ul of PBS+CHAPS solution to one set of wells and 20 ul of HALOTAG® Standard protein in PBS+CHAPS solution to the other set of wells. Collect fluorescence polarization data for 10 minutes.

A further assay has as its system HEK WT cells. The assay is described as follows: Cell based assay: fluorescence change in HEK WT cells after Tl+. The text has this: (§1) Prepared dye load buffer with the desired indicator, dye load may include probenecid, pluronic, TRS. Add the dye load to cells (both wild type (WT) and HALOTAG® expressing (HT+) cells that had been allowed to grow in a 96-well plate overnight. Collect bottom read fluorescence and images on a Cytation5 (BioTek). In some cases after loading, cells were washed to allow unbound dye to efflux from cells over a period of time. Wash solution may be dye load or media, may include TRS, may not include probenecid. Collect unloading data on the Cytation5 as well. Then added stimulus solution to record fluorescence change and differences between WT cells and HT+ cells. Use both Cytation5 and FlexStation.
(§2) HEK WT and HEK HT(+) cells were loaded with compound I-2. After loading for 30 minutes (pre-stimulus images), a stimulus solution of 1 mM Tl^+ was added.

Another assay has as its system HEK HT(+) cells. The assay can be described thus: Cell based assay: fluorescence change in HEK HT(+) cells after Tl+. The note with it: loaded 30 minutes, 1 mM Tl+ stimulus. The protocol:
Seeded HEK 293 cells (ATCC) into a 6 well plate. Used pHTC HALOTAG® CMV-neo Vector and Lipofectamine 2000 (THERMO) to transfect cells. Allowed cells to grow and look healthy before adding 300 μg/ml G418 solution. Conducted limited dilution cloning in 96-well plate. Confirmed HALOTAG® expression by adding TMR. Expanded cells that expressed HALOTAG®.
as §1, §2

Setting [2] is: with HALOTAG® protein, 200 nM indicator, 800 nM protein, 10 minutes.

With `COCCOc1cc(-c2c3cc(CCC(=O)NCCOCCOCCNC(=O)CCCC[C@@H]4SC[C@@H]5NC(=O)N[C@@H]54)c(=O)c(Cl)c-3oc3c(Cl)c(O)c(CCC(=O)NCCOCCOCCNC(=O)CCCC[C@@H]4SC[C@@H]5NC(=O)N[C@@H]54)cc23)ccc1N1CCOc2cc(C)ccc2N2CCOCCOCCN(CCOCCOCC2)c2ccc(C)cc2OCC1`, the “K sensitivity when immobilized” value in assay [1] is given as “retains its sensitivity to potassium”.
In the case of `COc1cc(NC(=O)c2ccc3c(c2)C(=O)OC32c3ccc(OC(C)=O)cc3Oc3c2ccc(OC(C)=O)c3CN(C)Cc2cn(CC(=O)NCCOCCOCCCCCCCl)nn2)ccc1N(CC(=O)OCOC(C)=O)CC(=O)OCOC(C)=O` (stereo not shown), the fluorescence polarization entry was “decreased or remained the same” with HALOTAG® protein (HALOTAG protein not added) and “increased” in the assay on HALOTAG® protein (setting [2]).
`CC(=O)OCOC(=O)CN(CC(=O)OCOC(C)=O)c1ccc(C(=O)Nc2ccc3c(c2)C(=O)OC32c3ccc(OC(C)=O)cc3Oc3cc(OC(C)=O)ccc32)cc1OCc1cn(CC(=O)NCCOCCOCCCCCCCl)nn1`: the “retention of the indicator” value in the assay on HEK WT cells was “do not retain significant concentrations”. Further, the increase in fluorescence entry is listed as “negligible increase” in the assay on HEK WT cells (loaded 30 minutes, 1 mM Tl+ stimulus) and “large increase in fluorescence” in the assay on HEK HT(+) cells. For the same molecule, the results for the fluorescence polarization entry in the assay on HALOTAG® protein (HALOTAG protein not added) and with HALOTAG® protein (setting [2]) were “decreased or remained the same” and “increased”, respectively.
Regarding `CC(=O)OCOC(=O)CN(CC(=O)OCOC(C)=O)c1ccccc1OCCOc1cc2c(cc1N(CC(=O)OCOC(C)=O)CC(=O)OCOC(C)=O)C(=O)OC21c2ccc(OC(C)=O)cc2Oc2cc(N3CC(C(=O)NCCOCCOCCCCCCCl)C3)ccc21` (stereo not shown), the fluorescence polarization entry in the assay on HALOTAG® protein (HALOTAG protein not added) is “decreased or remained the same”; with HALOTAG® protein (setting [2]) it was “increased”.

(Values after patent US20260384672A1, “FLUORESCENT INDICATORS FOR METAL ION DETECTION AS SUBSTRATES FOR A SELF-LABELING ENZYME” (published 2026).)
